The record followed here is published antibiotic growth screens (doi:10.1038/s41589-023-01349-8).

The list shows a part of the results.

This assay deals with A. baumannii ATCC 17978. Description: relative growth (fraction of control); higher = less inhibition. The conditions noted are these: 50 µM.
In turn, `CCn1nc(C(=O)O)c(=O)c2cc3c(cc21)OCO3` displayed a relative growth of 0.167.
With `CO[C@@H]1CN(C)C(=O)c2ccc(NC(=O)Nc3ccccc3)cc2OC[C@H](C)N(C(=O)CN(C)C)C[C@H]1C`, the relative growth amounted to 1.13.
`O=c1c(-c2ccc(O)cc2)coc2c([C@@H]3O[C@H](CO)[C@@H](O)[C@H](O)[C@H]3O)c(O)ccc12` came in with a relative growth of 1.04.
For `COc1cc(N2CCN(S(C)(=O)=O)CC2)nc(C)n1`, the relative growth is 1.08.
For `CSc1nc(C)nc2ccccc12` the value was 0.848.
Compound `CC(C)(Oc1ccc(C(=O)c2ccc(Cl)cc2)cc1)C(=O)O` showed a relative growth of 0.983.
For `O=C(C[C@@H]1CC[C@H](NC(=O)c2cccnc2)[C@@H](CO)O1)NCCN1CCCCC1` the value was 0.93; for `CCCCNc1ccc(C(=O)OCCOCCOCCOCCOCCOCCOCCOCCOCCOC)cc1`, 0.944; for `CO[C@@H]1CN(C)C(=O)c2ccc(NC(=O)Nc3ccccc3)cc2OC[C@H](C)N(C(=O)CN(C)C)C[C@@H]1C`, 1.08.
In turn, `COc1ccc(S(=O)(=O)N(C)C[C@@H]2Oc3ccc(NC(=O)Nc4cc(Cl)cc(Cl)c4)cc3CC(=O)N([C@@H](C)CO)C[C@@H]2C)cc1Cl` came in with a relative growth of 0.953.
The figure for `CC(C)=CCC/C(C)=C/CC/C(C)=C/CC/C(C)=C/CC/C(C)=C/CC/C(C)=C/CC/C(C)=C/CC/C(C)=C/CC/C(C)=C/CO` is 1.18; for `O=C(C[C@@H]1CC[C@@H]2[C@H](COC[C@H](O)CN2C(=O)c2ccc3c(c2)OCO3)O1)NCCN1CCCC1` it is 1.11.
For `C[C@H](CO)N1C[C@H](C)[C@@H](CN(C)C(=O)C2CCCCC2)Oc2cc(Br)ccc2S1(=O)=O` the value was 0.792; for `O=S1(=O)OC(c2ccc(O)cc2)(c2ccc(O)cc2)c2ccccc21`, 1.01.
Consider `OCCCC1=C[C@H](c2ccc(CN3CCCC3)cc2)N(Cc2cc3c(cc2Br)OCO3)CC1`, for which the relative growth is 1.02.
The compound `C[C@H](NC(=O)C[C@H]1CC[C@@H](NC(=O)CN2CCOCC2)[C@H](CO)O1)c1ccccc1` registered a relative growth of 0.815.
Take `COCCOC(=O)C1=C(C)NC(C)=C(C(=O)OC/C=C/c2ccccc2)C1c1cccc([N+](=O)[O-])c1` (stereo unspecified): the relative growth was found to be 1.59.
On to `C[C@@H]1CN([C@@H](C)CO)S(=O)(=O)c2ccc(C3=CCCC3)cc2O[C@H]1CN(C)C(=O)c1cnccn1`, for which the relative growth was determined as 1.13.
As to `CN(C)Cc1cn(CC[C@H]2CC[C@H](NC(=O)Cc3cccnc3)[C@@H](CO)O2)nn1`, the relative growth is 0.94.
Regarding `O=C(O[C@@H]1Cc2c(O)cc(O)cc2O[C@@H]1c1cc(O)c(=O)c2c(O)c(O)cc([C@H]3Oc4cc(O)cc(O)c4C[C@H]3O)c2c1)c1cc(O)c(O)c(O)c1`, the relative growth worked out at 0.902.
`CN1CCN(C(=O)C[C@@H]2CC[C@@H]3[C@H](COC[C@H](O)CN3C(=O)C3CC3)O2)CC1` registered a relative growth of 0.988.
The figure for `C[C@H]1O[C@@H](O[C@H]2CC[C@@]3(C)[C@@H](CC[C@@]4(C)[C@@H]3CC=C3[C@H]5C[C@](C)(C(=O)O)CC[C@]5(C(=O)O[C@H]5O[C@@H](CO)[C@@H](O)[C@@H](O)[C@@H]5O)CC[C@@]34C)[C@@]2(C)CO)[C@@H](O)[C@@H](O[C@H]2O[C@@H](CO)[C@@H](O)[C@@H](O)[C@@H]2O)[C@@H]1O` is 0.953.
On to `O=C(O)/C=C/c1ccc(Cn2ccnc2)cc1`, for which the relative growth was determined as 1.16.
`CO[C@@H]1CN(C)C(=O)c2cc(NS(C)(=O)=O)ccc2OC[C@H](C)N(C(=O)C2CCOCC2)C[C@H]1C` registered a relative growth of 1.15.
On to `COCc1cn(C[C@H](Cc2ccccc2)NC(=O)N[C@H](CO)CCc2oc(C(=O)N3CCOCC3)c(C(=O)OC)c2C(=O)OC)nn1`, for which the relative growth amounted to 0.908.
Turning to `CCOc1ccc(CO[C@@H]2O[C@H](CO)[C@@H](O)[C@H](O)[C@H]2NC(C)=O)cc1OC`, the relative growth came out at 1.06.
For `C[C@H]1OC(n2cc(F)c(=O)[nH]c2=O)C(O)[C@@H]1O` (stereo partly specified), the relative growth amounted to 1.15.
`CC(=O)n1cc([C@@H]2C=C(C(=O)NCc3ccccc3)O[C@H](OCc3ccc(CO)cc3)C2)c2ccccc21` displayed a relative growth of 0.993.
For `CCN(CC)CCOCCOC(=O)C(CC)(CC)c1ccccc1.O=C(O)CC(O)(CC(=O)O)C(=O)O` the value was 0.993.
`CNC(=O)CN1C(=O)c2ccccc2S1(=O)=O` came in with a relative growth of 1.05.
For `COC(=O)Nc1nc2ccc(S(=O)c3ccccc3)cc2[nH]1` (stereo unspecified), the relative growth amounted to 0.99.
For `COC(=O)Cc1c(C)[nH]c2ncnn2c1=O` the value was 1.05; for `C[C@H](CCC(=O)[O-])[C@H]1CCC2C3C(=O)CC4CC(=O)CC[C@]4(C)C3CC(=O)[C@@]21C.[Na+]` (stereo partly specified), 1.12; for `CO[C@H]1CN(C)C(=O)c2cc(NS(=O)(=O)CC(F)(F)F)ccc2OC[C@@H](C)N(Cc2ccccn2)C[C@@H]1C`, 0.985.
The compound `CO[C@H]1C(=O)[C@@]2(C)C([C@H](OC(=O)c3ccccc3)[C@]3(O)C[C@H](OC(=O)[C@H](O)[C@@H](NC(=O)OC(C)(C)C)c4ccccc4)C(C)=C1C3(C)C)[C@]1(OC(C)=O)CO[C@@H]1C[C@@H]2OC` (stereo partly specified) had a relative growth of 1.45.
In turn, `CN(C)CC/C=C1/c2ccccc2COc2ccccc21.Cl` returned a relative growth of 0.828.
Consider `COCC(=O)N1C[C@H](C)[C@H](OC)CN(C)C(=O)c2ccc(NC(=O)c3ccc(F)cc3)cc2OC[C@@H]1C`, for which the relative growth is 0.949.
Compound `C[C@@H]1CN([C@H](C)CO)S(=O)(=O)c2ccc(C#Cc3cccnc3)cc2O[C@H]1CN(C)C(=O)Nc1ccc2c(c1)OCO2` displayed a relative growth of 1.1.
Compound `CC(C)=CCC/C(C)=C/CO` displayed a relative growth of 0.869.
For `O=C(O)Cn1nnnc1-c1ccc(F)cc1` the value was 0.999; for `C[C@@H]1CN([C@@H](C)CO)S(=O)(=O)c2ccc(C#CC(C)(C)O)cc2O[C@H]1CN(C)C(=O)CN(C)C`, 1.02.
The figure for `C[C@]12CCC(=O)C=C1CCC1C2CC[C@@]2(C)C1CC[C@]2(O)C(=O)CO` (stereo partly specified) is 0.969; for `CC(C)(CO)NC(=O)C(=O)NC1CC1` it is 1.04; for `C=CCNC(=O)[C@H]1[C@@H]2C(=O)O[C@@H](c3ccccc3)[C@@H](c3ccccc3)N2[C@@H](c2ccc(O)cc2)[C@]12C(=O)Nc1ccc(C#Cc3ccc(OC)cc3)cc12` it is 0.871.
In the case of `Nc1cccc(C2=NCCN2)c1`, the relative growth is 1.04.
For `COCC(=O)N(C)C[C@@H]1Oc2cc(C#CCC3CCCC3)ccc2S(=O)(=O)N([C@@H](C)CO)C[C@H]1C` the value was 0.909.
In turn, `COc1ccc(C)cc1S(=O)(=O)NCCO` gave a relative growth of 1.01.
In turn, `O=c1[nH]nc(Br)c(=O)[nH]1` yielded a relative growth of 1.
The figure for `CCCC#Cc1ccc2c(c1)O[C@@H](CN(C)C(=O)c1cnccn1)[C@H](C)CN([C@@H](C)CO)S2(=O)=O` is 0.984; for `C[C@@H]1CN([C@H](C)CO)S(=O)(=O)c2ccc(-c3ccc(C(=O)N(C)C)cc3)cc2O[C@@H]1CN(C)C(=O)Cc1ccccn1` it is 1.07; for `CN1CCC(=C2c3ccccc3CC(=O)c3sccc32)CC1.O=C(O)/C=C/C(=O)O` it is 0.943.
As for `Cn1c(N)c(C(=O)c2ccco2)c(=O)n(C)c1=O`, the relative growth is 1.01.
For `COC(=O)c1c2oc(c1C(=O)OC)C(=O)N(C)Cc1cn(nn1)C[C@@H](Cc1ccccc1)NC(=O)N[C@H](COC(=O)NCCCCCC(=O)NO)CC2` the value was 0.834; for `CS(=O)(=O)Nc1ccc2c(c1)[C@H]1C[C@H](CC(=O)NCc3ccc(-c4ccccc4)cc3)O[C@H](CO)[C@H]1O2`, 1.05.
For `COc1ccc(COC[C@]23NC(=S)N[C@H](c4ccccc4O2)[C@H]3CO[Si](C)(C)C(C)(C)C)cc1`, the relative growth was 1.14.
For the compound `CN/C(=C\[N+](=O)[O-])NCCSCc1csc(CN(C)C)n1`, the relative growth turned out to be 0.956.
The figure for `CC(=O)[C@H]1CCC2C3CC=C4C[C@@H](O)CC[C@]4(C)C3CC[C@@]21C` (stereo partly specified) is 0.993; for `NCC[C@H]1CC[C@@H](NC(=O)C2CCCCC2)[C@H](CO)O1` it is 1.06; for `CC(C)/C(O)=C1/C(=O)O[C@@H](c2ccoc2)[C@]2(C)C(O)[C@@H](O)[C@@]34OC5(C)OC67CC(C)(C(O)[C@]6(O)[C@@H](O)[C@]3(O5)C12)[C@H](CC(=O)O)[C@]74C` (stereo partly specified) it is 0.967.
Turning to `CC[C@H]1OC(=O)[C@H](C)[C@@H](O[C@H]2C[C@@](C)(OC)[C@@H](O)[C@H](C)O2)[C@H](C)[C@@H](O[C@@H]2O[C@H](C)C[C@H](N(C)C)[C@H]2O)[C@](C)(O)C[C@@H](C)[C@@H]2N[C@@H](COCCOC)O[C@H]([C@H]2C)[C@]1(C)O`, the relative growth stood at 0.587.
Compound `O=C(O)[C@@H]1CCCNC1` gave a relative growth of 0.972.
In the case of `C[C@H](O)C(=O)Nc1c(I)c(C(=O)NC(CO)CO)c(I)c(C(=O)NC(CO)CO)c1I`, the relative growth turned out to be 1.14.
The figure for `C=CCNS(=O)(=O)c1cccc2nonc12` is 0.932; for `CCCCCC(C)N.O=S(=O)(O)O` (stereo unspecified) it is 1.03; for `COc1ccccc1-c1ccc2c(c1)O[C@H](CN(C)C(=O)c1ccncc1)[C@@H](C)CN([C@@H](C)CO)S2(=O)=O` it is 1.08.
With `CCCNC(=O)Nc1ccc2c(c1)C(=O)N(C)C[C@H](OC)[C@H](C)CN(C(=O)C1CCOCC1)[C@@H](C)CO2`, the relative growth was found to be 0.89.
Turning to `CSCc1nc(=O)cc(C(=O)O)[nH]1`, the relative growth worked out at 1.06.
Compound `O=C(C[C@@H]1C=C[C@H](NC(=O)C2CCOCC2)[C@@H](CO)O1)NCCc1cscn1` had a relative growth of 1.09.
`C[C@@H]1CN([C@@H](C)CO)S(=O)(=O)c2ccc(C#CC3CC3)cc2O[C@H]1CN(C)Cc1ccccc1F` gave a relative growth of 1.2.
For `COc1ccc([C@@H]([C@H](Cc2ccccc2)OC(C)=O)N2C[C@H]3[C@@H]([C@@H](O)c4ccccc4)ON(C)[C@H]3[C@@H]2Cc2ccccc2)cc1` the value was 0.989.
In turn, `CC(=O)OC1CC2CCC1(C)C2(C)C` (stereo unspecified) yielded a relative growth of 1.15.
With `C[C@H](O)C#Cc1ccc2c(c1)O[C@@H](CN(C)C(=O)c1ccncc1)[C@@H](C)CN([C@@H](C)CO)S2(=O)=O`, the relative growth is 1.03.
Take `C[C@H](O)C#Cc1ccc2c(c1)O[C@H](CN(C)C(=O)CN(C)C)[C@@H](C)CN([C@H](C)CO)S2(=O)=O`: the relative growth was 0.955.
Turning to `C[C@H]1CN([C@@H](C)CO)S(=O)(=O)c2ccc(-c3cccc(F)c3)cc2O[C@H]1CN(C)S(C)(=O)=O`, the relative growth is 0.985.
`Cc1cc(Nc2cc(C)on2)nc([C@H]2CCN(C(=O)CN)C2)n1`: the relative growth was 0.885.
On to `Cn1cnc(S(=O)(=O)N2C[C@H](O)COC[C@@H]3O[C@@H](CC(=O)NCc4ccc(F)cc4)CC[C@H]32)c1`, for which the relative growth was found to be 0.97.
